# Measurements published in article PMC12674763 (JAC-Antimicrobial Resistance, 2025).
# System: HK-2 cells
# Conditions: P<0.0001 VRP-034 versus marketed PMB
substance,measurement,setting,value
Polymyxin B [marketed PMB],"IC50, cytotoxicity",24h,90.4 µg/mL
same,"IC50, cytotoxicity",48 h,48.5 µg/mL

# Like-named read-outs stand apart in the source and are kept apart here.
